From patent publication US11351221B2, “SMAC mimetic” (Medivir AB, priority 2009, dated 2022)
Where two headings read alike, the source gives them in different places.

Key:
[1] = assay type: in vivo; details: rat; for Clinical signs: iv
Method: Body weight loss (BWL), mortality and additional toxicity data were generated substantially as follows. Sprague-Dawley rats were dosed daily (QD×4, i.v. bolus slow push) with Compounds 15, 4 and 5. Body weights were taken on day 4 and are shown as percent change from day 1. Compounds 4 and 5 were administered at 0.3 mg/Kg, 1 mg/Kg, or 3 mg/Kg; Compound 15 was administered at 1, 5, or 10 mg/Kg.

[2] = test system: MDA-MB-231 human breast tumor cells; assay: MDA-MB-231 xenograft tumor growth delay; assay type: in vivo, female nude mice; details: 20 mg/Kg i.p., q3dx5
Method: MDA-MB-231 xenograft data were generated substantially as follows. MDA-MB-231 human breast tumor cells were injected into the mammary fat pad of female nude mice and dosing initiated twelve days later at an average tumor volume of approximately 148 mm^3. No tumor burden was associated with this model based on lack of weight loss or animal morbidity in control groups. Mice were injected subcutaneously into the mammary fat pad with 1×10^7 cells suspended in 200 μl of a 1:1 HBSS: Matrigel solution; injected cells were within nine passages of the original lot. Pre-study tumor volumes were recorded beginning approximately one week prior to the estimated start date. […]
Beginning on Day 0, animals were observed daily and weighed twice weekly using a digital scale (Ohaus SP601); data including individual and mean gram weights (Mean We±SD), mean percent weight change versus Day 0 (% vD0) and mean percent weight change versus prior measurement (% vD−x) were recorded for each group and plotted at study completion.
Beginning on Day 0, tumor dimensions were measured twice weekly by digital caliper (Fowler Ultra-Cal IV) and data including individual and mean estimated tumor volumes (Mean TV±SEM) recorded for each group; tumor volume was calculated using the formula: TV=width^2×length×0.52. […]

With `CC[C@H](NC(=O)[C@H](C)NC)C(=O)N1C[C@@H](O)C[C@H]1Cc1c(-c2[nH]c3cc(F)ccc3c2C[C@@H]2C[C@H](O)CN2C(=O)[C@H](CC)NC(=O)[C@H](C)NC)[nH]c2cc(F)ccc12` [Compound 15, N-{1S-[2R-(6,6′-Difluoro-3′-{4S-hydroxy-1-[2S-(2S-methylamino-propionylamino)-butyryl]-pyrrolidin-2R-ylmethyl}-1H,1′H-[2,2′]biindolyl-3-ylmethyl)-4S-hydroxy-pyrrolidine-1-carbonyl]-propyl}-2S-methylamino-propionamide] the Mortality ([1]; 10 mg/Kg, QDx4 i.v. bolus) was “mortality was observed”, the “Bone marrow hypocellularity of the erythroid series (anatomic pathology)” value ([1]; in vivo, 1 mg/kg/day) was “minimal to mild” and the “Hypercellularity of the myeloid series (anatomic pathology)” value ([1]; in vivo, 1 mg/kg/day) was “minimal to mild”. The “Type 2 pneumocyte hypertrophy/hyperplasia in the lungs (anatomic pathology)” value ([1]; in vivo, 1 mg/kg/day) was “minimal”, the Clinical signs ([1]; in vivo, 1 mg/kg/day) was “no clinical signs noted” and the Clinical signs ([1]; in vivo, 5 mg/kg/day) was “lethargy, increased/irregular respiration and increased heart rate”. The “Anti-tumor activity relative to Compound 5 at 15 mg/Kg” value [2] was “comparable anti-tumor activity”.
